Assay results as given in US6265551A, “Form of dipeptidylpeptidase IV (CD26) found in human serum, antibodies thereto, and uses thereof” (Dana-Farber Cancer Institute, Inc., priority 1996, dated 2001).

By UniProt entry, the sequences of proteins in these tests, tags left out. Residues count along the entry.
UniProt P27487, 29-766 limits assumed: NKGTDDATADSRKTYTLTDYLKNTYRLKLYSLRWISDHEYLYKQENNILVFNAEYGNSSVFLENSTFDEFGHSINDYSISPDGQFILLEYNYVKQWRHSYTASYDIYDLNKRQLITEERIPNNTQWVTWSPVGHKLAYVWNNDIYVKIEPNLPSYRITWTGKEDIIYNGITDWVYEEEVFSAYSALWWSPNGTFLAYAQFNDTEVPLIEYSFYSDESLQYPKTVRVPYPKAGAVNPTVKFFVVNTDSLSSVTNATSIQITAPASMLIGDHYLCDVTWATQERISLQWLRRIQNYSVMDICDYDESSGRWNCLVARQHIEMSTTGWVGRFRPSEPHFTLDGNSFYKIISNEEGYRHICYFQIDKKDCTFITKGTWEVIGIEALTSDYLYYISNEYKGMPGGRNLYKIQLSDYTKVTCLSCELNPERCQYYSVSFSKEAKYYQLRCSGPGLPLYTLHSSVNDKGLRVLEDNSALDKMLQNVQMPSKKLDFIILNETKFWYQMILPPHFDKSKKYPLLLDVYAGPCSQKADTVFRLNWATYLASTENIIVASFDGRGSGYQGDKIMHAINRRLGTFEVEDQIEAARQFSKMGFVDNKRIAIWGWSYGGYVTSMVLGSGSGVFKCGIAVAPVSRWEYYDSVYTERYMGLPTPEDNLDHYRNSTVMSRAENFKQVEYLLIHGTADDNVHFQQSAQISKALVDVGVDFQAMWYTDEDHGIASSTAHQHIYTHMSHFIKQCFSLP

Target: recombinant soluble CD26 (rsCD26), full extracellular domain of human T cell membrane CD26/DPPIV, 105 kDa form, from transfected CHO cells (Homo sapiens, UniProt P27487)
Experiment: DPPIV enzyme activity: Gly-Pro-pNA hydrolysis, Michaelis-Menten kinetics and inhibition

`CC[C@H](C)[C@H](N)C(=O)N1CCC[C@H]1C(=O)N[C@H](C(=O)O)[C@@H](C)CC` [Diprotin A] gave an IC50 of 125 µM.
